{"source": "paper PMC12100652", "key": {"[1]": {"biological_target": "pyroglutamate-modified α-synuclein 24-140 (human) (UniProt P37840)", "assay": "AUC; sedimentation velocity, 42,000 rpm, 20 °C, interference detection, c(s) analysis; agitated samples diluted in 50 mM Tris/HCl pH 7.2, 200 mM NaCl; two concentrations"}, "[2]": {"biological_target": "pyroglutamate-modified α-synuclein 24-140 (human) (UniProt P37840)", "assay": "SEC + other: SAXS; after agitation at 12 mg/mL, 900 rpm, 37 °C, 5 h (pE62-aSyn 30 min), insoluble aggregates removed at 10,000g; Yarra SEC 3000 column, 50 mM Tris/HCl pH 7.2, 200 mM NaCl, 20 °C, 0.3 mL/min"}}, "data": [{"substance": "pyroglutamate-modified α-synuclein 24-140 (from UniProt P37840 24-140) (domain or fragment)", "values": [{"measurement": "stoichiometry N", "setting": "[1]", "result": 2}, {"measurement": "stoichiometry N", "setting": "[2]", "result": 2}]}]}
